Data published in patent publication US20210379066A1, “COMBINATIONS OF POSITIVE ALLOSTERIC MODULATORS AND NICOTINIC ACETYLCHOLINE RECEPTOR AGONISTS FOR TREATING OCULAR CONDITIONS” (Oyster Point Pharma, Inc., priority 2018, published 2021).
Where “and” joins values, the source holds several entries; their conditions need not be identical. Equal entries are not always repeated. Entries after “also recorded” stand apart in the source; their conditions may differ.

Chains of the proteins cited; added tags and fusions are not shown. Residues count along the entry.
UniProt P36544, 23-502: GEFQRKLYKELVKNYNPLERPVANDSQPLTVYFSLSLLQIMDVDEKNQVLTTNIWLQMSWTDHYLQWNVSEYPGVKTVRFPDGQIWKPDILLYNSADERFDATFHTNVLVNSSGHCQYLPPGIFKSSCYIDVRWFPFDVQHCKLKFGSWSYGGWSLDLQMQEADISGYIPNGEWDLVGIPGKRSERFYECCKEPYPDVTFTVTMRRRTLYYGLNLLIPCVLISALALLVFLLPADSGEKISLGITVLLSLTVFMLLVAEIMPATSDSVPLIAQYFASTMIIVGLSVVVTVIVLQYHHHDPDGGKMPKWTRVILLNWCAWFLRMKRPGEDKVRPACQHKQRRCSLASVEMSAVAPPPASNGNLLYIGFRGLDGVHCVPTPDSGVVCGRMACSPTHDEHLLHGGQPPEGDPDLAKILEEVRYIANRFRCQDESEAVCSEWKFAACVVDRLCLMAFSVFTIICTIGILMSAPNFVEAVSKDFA

Legend:
human nAChR alpha7 = molecular target: T1, human nAChR alpha7 (Homo sapiens, UniProt P36544); experiment: Agonist activity, two-electrode voltage clamp in Xenopus oocytes (Examples 2 and 5); assay type: cell-based
T1 construct: expressed in transfected cells; host or cells: Xenopus laevis oocytes (cDNA injection)
Protocol: All experiments were carried out at human nAChRs expressed in Xenopus oocytes using the method of cDNA expression. Xenopus oocytes were prepared and injected using standard procedures.
Briefly, ovaries were harvested from Xenopus Laevis females that have been deeply anesthetized by cooling at 4° C. and Tricaine methanesulfonate (MS-222 at a concentration of 150 mg/L) in sodium bicarbonate (300 mg/L). Once anesthetized the animal was decapitated and pithed following the rules of animal rights from the Geneva canton. A small piece of ovary was isolated for immediate preparation while the remaining part was placed at 4° C. in a sterile Barth solution containing in mM NaCl 88, KCl 1, NaHCO32.4, HEPES 10, MgSO4.7H2O 0.82, Ca(NO3)2.4H2O 0.33, CaCl2.6H2O 0.41, at pH 7.4, and supplemented with 20 μg/ml of kanamycin, 100 unit/ml penicillin. All recordings were performed at 18° C. and cells superfused with OR2 medium containing in mM: NaCl 88, KCl 2.5, HEPES 5, CaCl2.2H2O 1.8, MgCl2.6H2O 1, pH 7.4.
Currents evoked by ACh or other agonists were recorded using an automated process equipped with standard two-electrode voltage-clamp configuration (TEVC). Data were captured and analyzed using a HiQScreen proprietary data acquisition and analysis software running under Matlab (Mathworks Inc.).
See Example 1. […] The test concentration of acetylcholine chloride was 1280 micromolar. […]
A protocol to determine agonistic activity in the oocytes expressing the nAChRs was developed. […] The current evoked from exposure to the agonist at each concentration was recorded. […]
A protocol to determine agonistic activity in the oocytes expressing the nAChRs was developed. Oocytes expressing a nAChR subtype were exposed to a brief test pulse of acetylcholine (1280 micromolar) while the holding current and response was evaluated. […] The current evoked from exposure to the agonist at each concentration was recorded. […]

human alpha7 nAChRs = molecular target: T2, human alpha7 nAChRs (Homo sapiens, UniProt P36544); experiment: Antagonistic activity / desensitization, cumulative exposure in the low concentration range (Example 2); assay type: cell-based; settings: concentrations up to 300 nM
T2 construct: expressed in transfected cells; host or cells: Xenopus laevis oocytes (cDNA injection)

“varenicline tartrate [reference compound]” was tested, and the EC50 (human nAChR alpha7; Example 2, value for compound 1 salt only an estimation) was ~11 µM and ~15 µM, the “effect on the subsequent ACh-evoked current” value (human nAChR alpha7; after exposure to the agonist) was “no significant inhibition” and the agonist character (human nAChR alpha7; versus ACh response) was “full agonist; also recorded: responses equivalent to ACh”. The “inhibition of the ACh-evoked current by sustained exposure” value (human alpha7 nAChRs) was “inhibition for concentrations in the hundreds of nanomolar range; also recorded: causes a desensitization”.
